# Ab-14 light chain CDR variants: yeast mating affinities

Data: MIT Lincoln Laboratory AlphaSeq set, Li et al. 2023, doi:10.1038/s41467-023-39022-2, as distributed in FLAb.

Antigen: PDVDLGDISGINAS, a 14-residue peptide of the SARS-CoV-2 spike HR2 region.

Parent: Ab-14, a human scFv built as VH, a 15-residue (Gly4Ser)3 linker, VL. Only the CDRs of the light chain vary.
VH: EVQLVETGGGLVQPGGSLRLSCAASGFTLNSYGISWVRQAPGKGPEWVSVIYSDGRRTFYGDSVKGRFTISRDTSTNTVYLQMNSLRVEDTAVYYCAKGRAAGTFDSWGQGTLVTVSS
VL: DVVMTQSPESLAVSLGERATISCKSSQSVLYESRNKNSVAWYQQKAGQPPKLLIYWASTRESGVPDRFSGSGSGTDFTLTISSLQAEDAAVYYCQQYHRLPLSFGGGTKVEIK

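The parent was found by panning a naive human phage display library on the peptide. These sequences belong to a second round, designed from the earlier measurements on random variants of the parent. Their group label is 14L_GP_Gibbs (GP: Gaussian process model; Gibbs: Gibbs sampling; a sequence that several methods proposed may carry one label only). Affinity was read by AlphaSeq, a pooled yeast mating assay with surface-displayed partners. Mating (16 h, 30 °C) was followed by selection of diploids and sequencing of their barcodes. Each replicate has its own calibration line, from reference interactions of the BCL2 family. Mating was done six times.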

Each variant is given by its three light chain CDRs, as the data file delimits them; those of the parent are KSSQSVLYESRNKNSVA, WASTRES, QQYHRLPLS. Numbers give log10(Kd / nM), so 0 is 1 nM and 3 is 1 µM. Smaller is tighter. A mean of the replicates is given; it leaves out those without a signal. Where no diploid with the target was found in that replicate, the entry reads "nd": below detection, most likely a poor binder, though not proof of it. The range of this assay differs from that of the first round, and the authors advise against merging the two. In the paper, a design with two or fewer of six values counts as a poor binder. Empty control strains, which show no peptide, gave a signal in 4% of pairings with all light chain designs; the median was 2.64 and 95% of these signals were weaker than 1.59. No background was subtracted. For each scFv, signals with the empty controls are counted beside the result, with their mean in brackets. Of ten entries with the parent sequence, four were seen in most replicates (averages 0.34 to 2.37), three in one and three in none, so single entries are noisy.

| # | CDR-L1 | CDR-L2 | CDR-L3 | log10 Kd, replicates | log10 Kd (nM), mean | signal with controls |
|---|---|---|---|---|---|---|
| 1 | KLPAWQGYESRNKASVA | QASTRES | QQYHRLPLS | 0.45 0.19 0.35 0.36 0.13 0.20 | 0.28 | 2 of 18 (3.55) |
| 2 | KLEQSDLYESRNKQSVA | NASERES | QQYHRLPLS | 0.34 0.00 -0.15 0.05 0.01 0.43 | 0.11 | 0 of 18 |
| 3 | KSSFSQLYEDRNKNSVA | SATQRES | QQYHRLPLS | 0.35 0.36 0.32 0.12 0.08 0.32 | 0.26 | 0 of 18 |
| 4 | KIEQSMLYESRNVNSVA | NASTREV | QQYHRLPLS | 0.25 -0.31 -0.20 -0.30 -0.14 0.04 | -0.11 | 0 of 18 |
| 5 | KVQMKNLYESRMKNSVA | NASLRES | QQYHRLPLS | 0.88 2.36 0.69 1.36 0.78 1.03 | 1.18 | 0 of 18 |
| 6 | KLQQSDLYESRNKNNVA | EATLREQ | QQYHRLPLS | -0.02 0.15 -0.32 -0.17 -0.47 0.27 | -0.09 | 1 of 18 (1.92) |
| 7 | KQPQLGLYGSRNKNSVA | EASTRES | QQYHRLPLS | 1.89 1.04 1.52 1.31 1.45 0.91 | 1.35 | 0 of 18 |
| 8 | KSSQSVMGEDWNKNSVA | HASQRES | QQYHRLPLM | 1.19 1.03 0.87 0.63 0.71 0.78 | 0.87 | 4 of 18 (2.98) |
| 9 | KLSQSMGYEERNKNSVA | HASQRMS | QQYHRLPLS | 0.18 -0.02 -0.24 -0.03 -0.14 0.19 | -0.01 | 2 of 18 (2.63) |
| 10 | KLSESVLYQSQNWNNVA | DASTRMS | QQYHRLPLS | -0.44 -0.52 -0.93 -0.70 -0.55 -0.30 | -0.57 | 0 of 18 |
| 11 | KLMMSGLYESRNKNSVA | EASTREQ | QDYHRLPLS | 0.41 0.54 0.65 0.59 0.60 0.71 | 0.58 | 0 of 18 |
| 12 | KLSQADWYESRNKNSVA | EASLREQ | QQYHRLPLS | 0.02 0.13 -0.01 -0.14 -0.09 0.00 | -0.01 | 0 of 18 |
| 13 | KVSPSWLGEDRNCNAVA | QASCRES | QQYHRLPLS | 0.72 0.80 0.69 0.69 0.50 1.06 | 0.74 | 0 of 18 |
| 14 | KLSGSMLYESRVKNNVA | DAHQRES | QMYHRLPLS | 0.46 0.38 0.05 -0.02 0.18 0.23 | 0.22 | 2 of 18 (2.40) |
| 15 | ILSQSMLYESRNKNSVA | NASTRWS | QQYHRLPLS | 0.23 0.14 0.04 -0.03 -0.08 0.04 | 0.06 | 1 of 18 (2.72) |
| 16 | ILDQSQLYESRNKNSVA | NANTREQ | QQYHRLPLS | -0.32 -0.57 -0.68 -0.70 -0.73 -0.48 | -0.58 | 0 of 18 |
| 17 | KLSTSVLYESRMANNVA | AASTREE | QQYHRLPLS | 1.50 1.92 1.22 1.80 1.25 1.32 | 1.50 | 1 of 18 (2.46) |
| 18 | KCDQWVDYGDRNKNSVA | NASTRES | QQYHRLPLS | 1.42 1.40 1.52 1.80 2.47 1.90 | 1.75 | 0 of 18 |
| 19 | KSYQSSWYEDRNKNSVA | NASLRCS | QQYHRLPLS | 0.32 0.34 0.32 0.20 0.14 0.09 | 0.23 | 2 of 18 (2.51) |
| 20 | KLQQQSLYESRNKNSVA | EASTREQ | QQYHRLPLS | 0.03 0.03 -0.20 -0.12 0.09 -0.01 | -0.03 | 0 of 18 |
| 21 | KFVQSHDYESRNKNNVA | QASQREQ | QQYHRLPLS | 0.57 0.38 0.19 0.51 0.50 0.26 | 0.40 | 0 of 18 |
| 22 | KLSPSWLGEERNDNSVA | NASTRLS | QQYHRLPLS | 0.18 -0.04 -0.05 -0.02 -0.02 0.09 | 0.02 | 1 of 18 (1.86) |
| 23 | KLSQSNGYEDRNKNSVA | SASQREM | QQYHRLPLS | 0.03 -0.17 -0.32 -0.25 -0.28 0.02 | -0.16 | 0 of 18 |
| 24 | KQSQSGPYGDRNFNSVA | HASYRIS | QQYHRLPLS | 0.81 1.42 1.68 1.68 1.68 1.60 | 1.48 | 2 of 18 (3.18) |
| 25 | KLMWSVMLQSRNKNSVA | QASTRMM | QQYHRLPLS | nd 1.83 0.95 nd 1.57 2.11 | 1.62 | 1 of 18 (3.79) |
| 26 | KCDQWVDYGSRNKNSVA | DASTRES | QQYHRLPLS | -0.30 -0.29 -0.37 -0.27 -0.38 -0.23 | -0.31 | 0 of 18 |
| 27 | KLSQSTLYEQRNCNSVA | NASQRES | QQYHRLPLS | -0.23 0.16 -0.28 -0.05 -0.28 0.07 | -0.10 | 0 of 18 |
| 28 | KQQFSGGGGSRNKNSVA | EASTRES | QQYHRLPLS | 0.41 0.37 0.32 0.29 0.33 0.51 | 0.37 | 1 of 18 (1.68) |
| 29 | KLEQSELYMSRNANSVA | NASTRMS | QQYHRLPLS | 0.04 0.06 -0.03 -0.09 -0.19 0.02 | -0.03 | 2 of 18 (2.90) |
| 30 | KQQFSSGMESRNKNSVA | EASTRCS | QQYHRLPLS | 0.21 0.01 -0.06 0.27 -0.13 0.07 | 0.06 | 1 of 18 (1.69) |
| 31 | KFSQQVLYEDRQANSVA | NASQRMS | QQYHRLPLS | 0.65 1.14 0.71 0.36 0.45 1.06 | 0.73 | 1 of 18 (2.23) |
| 32 | KLSQSMLYESRNKNSVA | QASTREE | GQYHRLPLT | 0.22 -0.16 -0.21 -0.18 0.10 0.23 | 0.00 | 2 of 18 (2.58) |
| 33 | KVDFLGDYEQRNKNSVA | SASTRES | QQYHRLPLS | 0.08 -0.14 -0.26 -0.32 -0.32 -0.14 | -0.18 | 0 of 18 |
| 34 | HVSQSVLQESRNKNSVA | EASQRER | QQYHRLPLS | 0.09 0.00 0.19 0.05 -0.12 0.18 | 0.06 | 2 of 18 (3.59) |
| 35 | KLEQWTLYESRNKNSVA | NASQRES | QQYKRLPLS | -0.18 -0.30 -0.51 -0.51 -0.47 -0.38 | -0.39 | 3 of 18 (3.05) |
| 36 | KLMGEMDYESRNKNSVA | HASERES | QQYHRLPLQ | 0.16 0.59 -0.24 -0.12 -0.30 0.05 | 0.02 | 2 of 18 (1.95) |
| 37 | KLSPSQLYWSRNFNAVA | QASTRET | QQYHRLPLS | 0.96 0.78 0.94 0.73 1.03 0.84 | 0.88 | 0 of 18 |
| 38 | KLVQSNLYESRNTNSVA | NASQREQ | QQYHRLPLS | 1.00 1.14 1.07 1.11 1.22 0.95 | 1.08 | 1 of 18 (3.34) |
| 39 | AISQSVEYESRDKNSVA | NASTRES | QQYHRLPLS | 0.07 0.27 -0.20 -0.01 -0.12 0.02 | 0.00 | 1 of 18 (2.14) |
| 40 | KLEFSVDYESRNKNAVA | QASTREK | QQYHRLPLS | 0.54 0.70 0.55 0.41 0.29 0.72 | 0.54 | 1 of 18 (3.36) |
| 41 | ILSQSMLYESRMKNSVA | NASQRWS | QQYHRLPLS | 0.05 0.06 -0.01 0.26 0.06 0.52 | 0.16 | 0 of 18 |
| 42 | KLQFSCEYESRNKNSVA | MASTRCV | QQYHRLPLS | 1.18 0.75 0.64 0.98 0.88 1.35 | 0.96 | 0 of 18 |
| 43 | KQQMSVMMGSRNKNSVA | SASKREE | QQYHRLPLS | 0.63 0.68 0.59 1.23 0.93 0.84 | 0.82 | 1 of 18 (2.47) |
| 44 | KLDGSCQYESRTKNSVA | NASTRES | QQYHRLPLS | 0.96 0.54 0.20 0.08 0.59 0.48 | 0.48 | 0 of 18 |
| 45 | KMAQGNPYESRNKNSVA | NASYREM | QQYHRLPLS | -0.30 -0.25 -0.37 -0.61 -0.66 -0.31 | -0.42 | 1 of 18 (3.12) |
| 46 | KLQQQVQYESRNWNSVA | NASYRQS | QQYHRLPLS | nd 1.92 nd nd nd nd | 1.92 | 1 of 18 (1.96) |
| 47 | KLSQSDWYQSRMDNSVA | NASTRES | QQYHRLPLS | 0.18 0.09 0.20 0.21 -0.15 0.25 | 0.13 | 1 of 18 (3.96) |
| 48 | KVSQQMLYESRNKNNVA | EASHRES | QQYHRLPLS | -0.35 -0.46 -0.45 -0.48 -0.43 -0.41 | -0.43 | 1 of 18 (3.30) |
| 49 | KSQQSVLYESRNSNSVA | NGSTREL | QDYHRLPLS | 0.14 0.18 -0.07 -0.02 -0.07 0.36 | 0.09 | 1 of 18 (3.54) |
| 50 | KIEQSMLYESRNSNSVA | NASTRMD | QQYHRLPLM | 0.08 -0.04 -0.09 -0.26 -0.29 0.26 | -0.06 | 3 of 18 (2.88) |
| 51 | KLDQLVDEKSRNKNAVA | EASTRES | QQYHRLPLS | 0.11 -0.13 0.18 0.43 -0.28 0.16 | 0.08 | 1 of 18 (1.43) |
| 52 | KISQEYLGESRNMNSVA | NASTREQ | QQYHRLPLS | 0.13 -0.07 0.01 -0.17 -0.18 0.14 | -0.02 | 0 of 18 |

The 6 strongest on average among those seen in every replicate, once more:

| CDR-L1 | CDR-L2 | CDR-L3 | log10 Kd, replicates | log10 Kd (nM), mean | signal with controls |
|---|---|---|---|---|---|
| ILDQSQLYESRNKNSVA | NANTREQ | QQYHRLPLS | -0.32 -0.57 -0.68 -0.70 -0.73 -0.48 | -0.58 | 0 of 18 |
| KLSESVLYQSQNWNNVA | DASTRMS | QQYHRLPLS | -0.44 -0.52 -0.93 -0.70 -0.55 -0.30 | -0.57 | 0 of 18 |
| KVSQQMLYESRNKNNVA | EASHRES | QQYHRLPLS | -0.35 -0.46 -0.45 -0.48 -0.43 -0.41 | -0.43 | 1 of 18 (3.30) |
| KMAQGNPYESRNKNSVA | NASYREM | QQYHRLPLS | -0.30 -0.25 -0.37 -0.61 -0.66 -0.31 | -0.42 | 1 of 18 (3.12) |
| KLEQWTLYESRNKNSVA | NASQRES | QQYKRLPLS | -0.18 -0.30 -0.51 -0.51 -0.47 -0.38 | -0.39 | 3 of 18 (3.05) |
| KCDQWVDYGSRNKNSVA | DASTRES | QQYHRLPLS | -0.30 -0.29 -0.37 -0.27 -0.38 -0.23 | -0.31 | 0 of 18 |